Structures are written as SMILES. The entries are a selection whose mix differs from that of the whole data set. The source made the active and inactive calls.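 Rule for the calls: active = activation at or above 40% of the spot to cytoplasm intensity ratio, with at least 20 cells analyzed; inconclusive = wells under 20 cells, flagged as cytotoxic or low count; inactive = the rest.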

Protein sequences, listed by entry. Tags and fused reporters are not part of them.
UniProt P30989, whole entry: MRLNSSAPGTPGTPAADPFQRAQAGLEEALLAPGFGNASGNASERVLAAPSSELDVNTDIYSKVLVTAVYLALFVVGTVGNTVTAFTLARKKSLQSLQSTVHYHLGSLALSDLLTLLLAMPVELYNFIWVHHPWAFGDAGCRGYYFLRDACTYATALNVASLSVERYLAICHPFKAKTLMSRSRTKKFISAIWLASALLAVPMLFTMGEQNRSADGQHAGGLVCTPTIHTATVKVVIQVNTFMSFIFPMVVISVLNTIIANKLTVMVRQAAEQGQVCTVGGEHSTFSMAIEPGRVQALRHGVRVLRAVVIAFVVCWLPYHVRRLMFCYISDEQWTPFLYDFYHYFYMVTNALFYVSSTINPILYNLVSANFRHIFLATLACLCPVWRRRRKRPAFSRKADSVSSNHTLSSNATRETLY

The assay has as its target Neurotensin receptor type 1 (Homo sapiens) (UniProt P30989). Put plainly: NTR1-driven beta-arrestin-GFP spot formation – imaging, U2OS cells, high content, primary screen (AID 493036) (AID 493036).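 Note: 0% = DMSO without peptide and 100% = 100 nM NTR1 peptide.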 The conditions noted are these: agonist mode, at 20 µM, active compounds read high.
`CCC(=O)N(c1ccccc1)C1(COC)CCN(CCc2cccs2)CC1`: the activation is inactive: -1.5%. Turning to `CCC(=O)N(c1ccccc1)C1(COC)CCN(CCn2nnn(CC)c2=O)CC1`, the activation was inactive: 1.7%.
